The test system of data set [1] is Daphnia galeata-mendotae (clone CDF-1).
The test system of data set [2] is Daphnia. To be noted: low levels; cited from earlier work.
For data set [3], the system named is Daphnia galeata mendotae (CDF-1 clone). The note with it: in vivo.
Data set [4] has as its system Daphnia. To be noted: in vivo; cited from earlier work.
The subject of a further data set is Daphnia carinata. To be noted: long-term exposure; cited from earlier work.

With nonylphenol, the Reproduction entry in data set [1] (all treatments, 30 days) was “reduced reproduction”. For the same molecule, in data set [1] (high doses), the Production of ephippia result is reported as “decreased slightly”. Further, in data set [1] (in vivo), the “Reductions in r and in ephippia production, cause” value is reported as “largely a result of increased adult mortality”. Further, the Resting egg production result in the data set with Daphnia [2] is recorded as “reduce resting egg production”.

Take `ClC1=C(Cl)[C@]2(Cl)[C@@H]3[C@@H]4C[C@@H]([C@H]5O[C@@H]45)[C@@H]3[C@@]1(Cl)C2(Cl)Cl` [Dieldrin, dieldrin]: the Male production entry in data set [3] is “reduced male production”.

As to `O=S1OCC2C(CO1)C1(Cl)C(Cl)=C(Cl)C2(Cl)C1(Cl)Cl` (stereo not shown) [Endosulfan, endosulfan], in the data set with Daphnia [4], the “Relative allocation of available resources for reproduction” value is “did not induce changes”. Moreover, in the data set with Daphnia carinata, the “Concentration delaying time of first reproduction” value is given as 440 ppb.

The record behind these values is US6150126A, “Daphnia reproductive bioassay for testing toxicity of aqueous samples and presence of an endocrine disrupter” (Wisconsin Alumni Research Foundation, priority 1998, dated 2000).
